From US20190211024A1 (priority 2016, published 2019) come the findings set out here.

The data set deals with cell culture. The data set is described as follows: Minimal toxic dose in vitro.
In the case of “2-Methyisulfonyl-4-tert-butyl-6-nitro-1,2,4-triazolo[5,1-c]1,2,3-triazine-7-one”, the Minimal toxic dose is >100 µg/mL.

As for “2-Methylsulfonyl-4-ethyl-6-nitro-1,2,4-triazolo[5,1-c]1,2,3, -triazine-7-one”, the Minimal toxic dose was >100 µg/mL. In the case of “2-Methylsulfonyl-4-methyl-6-nitro-1,2,4-triazolo[5,1-cy]1,2,3-triazine-7-one”, the Minimal toxic dose is >100 µg/mL. As for “2-Methylsulfonyl-4-pivaloyloxymethyl-6-nitro-1,2,4-triazolo[5,1-c]1,2,3-triazine-7-one”, the Minimal toxic dose is >100 µg/mL. “2-iso-Propylsulfinyl-6-nitro-l2,4-triazolo[5,1-c]1,2,4-triazine-7-one”: the Minimal toxic dose is >200 µg/mL. Turning to “Sodium salt of 2-methylthio-4-ethyl-6-(2amino-2′-carboxyethylthio)-1,2,4-triazolo[5,1-c]1,2,4-triazine-7-one hydrate”, the Minimal toxic dose was >100 µg/mL. Consider “Sodium salt of 2-methylthio-4-methyl-6-(2′-amino-2′-carboxyethylthio)-1,2,4-triazolo[5,1-c]1,2,4-triazine-7-one hydrate”, for which the Minimal toxic dose is >100 µg/mL. In turn, “Sodium salt of 2-methylthio-4-pivaloyloxymethyl-6-(2+-amino-2′-carboxyethylthio)-1,2,4triazolo[5,1-c]1,2,4-triazine-7-one hydrate” came in with a Minimal toxic dose of 200 µg/mL. Substance “Sodium salt of 2-methylthio-4-tert-butyl-6-(2′-amino-T-carboxyethylthio)-1,2,4-triazolo[5,1-c]1,2,4-triazine-7-one hydrate” came in with a Minimal toxic dose of 200 µg/mL. Substance “Triethylammonium salt of (2′-amino-2′-carboxyethylthio)-6-nitro-1,2,4-triazolo[5,1-c][1,2,4]triazine hydrate” gave a Minimal toxic dose of 200 µg/mL.
